Results on two compounds are retold here after patent publication US4568690A, “1-Methyl-5-p-methylbenzoylpyrrole-2-acetamidoacetanilides with antiinflammatory, analgesic, antipyretic and anti-platelet aggregant activity” (priority 1983, dated 1986).

For one data set, the system named is gastric mucosa. As to the kind of experiment: gastric tolerance (ulcerogenic activity). The following applies: orally, four consecutive days; for Incidence % / 10: groups of 10 animals.
Data set [1] is described as follows: in vivo. The conditions noted are these: mouse.
Data set [2] is described as follows: in vivo. The following applies: rat, po.

Broadly, the LD50 is the dose at which mortality reaches 50%. The low end stands for a more toxic substance, the high end for a less toxic substance.

In the case of `Cc1ccc(C(=O)c2ccc(CC(=O)NCC(=O)Nc3cccc(C)c3C)n2C)cc1` [Compound 1f], the values for the Index gastric damage with gastric mucosa (50 mg/kg), in the data set with gastric mucosa (100 mg/kg) and in the data set with gastric mucosa (200 mg/kg) were 8, 12 and 14, respectively. Further, the “Index gastric damage, signed figure (untitled; difference from Carrier index 8)” value in the data set on gastric mucosa (50 mg/kg) is recorded as “+0”; in the data set with gastric mucosa (100 mg/kg) it was “+4”; with gastric mucosa (200 mg/kg) it was “+6”. In addition, the “Incidence % / 10” value in the data set on gastric mucosa (50 mg/kg) was found to be 6 %/10; in the data set with gastric mucosa (100 mg/kg), 7 %/10; with gastric mucosa (200 mg/kg) it was 8 %/10. For the same compound, the LD50 in the data set “in vivo [1]” (ip) was determined as 1000 mg/kg; in the data set “in vivo [1]” (po), 1400 mg/kg; in “in vivo [2]” it was 1300 mg/kg.
For the compound `Cc1ccc(C(=O)c2ccc(CC(=O)O)n2C)cc1` [Tolmetin Na.2H2 O, reference compound], in the data set with gastric mucosa (50 mg/kg), the Index gastric damage was 11; the “Index gastric damage, signed figure (untitled; difference from Carrier index 8)” value is given as “+3”; the “Incidence % / 10” value is on record as 7 %/10. In the data set on gastric mucosa (100 mg/kg), the Index gastric damage was 16; the “Index gastric damage, signed figure (untitled; difference from Carrier index 8)” value is reported as “+8”; the “Incidence % / 10” value is 10 %/10. In the data set with gastric mucosa (200 mg/kg), the Index gastric damage is 17; the “Index gastric damage, signed figure (untitled; difference from Carrier index 8)” value is “+9”; the “Incidence % / 10” value is reported as 10 %/10.
